Earlier results in patent US11633512B2, “Method for disinfecting soils or other agricultural growing media” (Agrozono, S.L., priority 2017, dated 2023).

System: microorganisms
Details: compared to ozone 0.1 mg/l for 5 seconds; cited from earlier work

chlorine
application period necessary for disinfection: 4 h
